Assay results taken from BindingDB's records for 1335078.

By UniProt entry, the sequences of proteins in these tests, tags left out.
UniProt P41143, whole entry, looked up: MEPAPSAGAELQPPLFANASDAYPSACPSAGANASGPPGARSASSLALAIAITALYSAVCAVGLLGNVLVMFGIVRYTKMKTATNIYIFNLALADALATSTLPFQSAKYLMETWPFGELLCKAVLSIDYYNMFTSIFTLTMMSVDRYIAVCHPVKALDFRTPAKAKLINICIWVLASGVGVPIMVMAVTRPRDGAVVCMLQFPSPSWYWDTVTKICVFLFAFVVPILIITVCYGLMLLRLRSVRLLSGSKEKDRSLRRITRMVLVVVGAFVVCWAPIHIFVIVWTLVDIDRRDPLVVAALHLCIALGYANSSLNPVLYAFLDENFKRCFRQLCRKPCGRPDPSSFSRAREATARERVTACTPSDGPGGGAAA

These molecules were tested against Delta-type opioid receptor (Homo sapiens, UniProt P41143) (assay: ASSAY_NAME: ChEBML_146877 DESCRIPTION: Inhibition of Opioid receptor delta 1 by displacing 1 nM [3H]DPDPE in guinea pig brain membrane).
In the case of `C=C(COc1ccc2c3c1O[C@H]1[C@H](OCC(=C)C(=O)OC)CC[C@@]4(O)[C@@H](C2)N(CC2CC2)CC[C@]314)C(=O)OC`, the IC50 is reported as 3.2 nM.
`C=C(COc1ccc2c3c1O[C@H]1[C@H](O)CC[C@@]4(O)[C@@H](C2)N(CC2CC2)CC[C@]314)C(=O)OC` was tested, and the IC50 was 34 nM.
`C=C(COc1ccc2c3c1O[C@H]1C(=O)CC[C@@]4(O)[C@@H](C2)N(C)CC[C@]314)C(=O)OC` was tested, and the IC50 was 21 nM.
For `C=C(COc1ccc2c3c1O[C@H]1C(=O)CC[C@@]4(O)[C@@H](C2)N(CC2CC2)CC[C@]314)C(=O)OC`, the IC50 was 17 nM.
`C=C(COc1ccc2c3c1O[C@H]1c4[nH]c5ccccc5c4C[C@@]4(O)[C@@H](C2)N(CC2CC2)CC[C@]314)C(=O)OC` gave an IC50 of 0.8 nM.
`COC(=O)C(C)COc1ccc2c3c1O[C@H]1C(=O)CC[C@@]4(O)[C@@H](C2)N(CC2CC2)CC[C@]314` (some centres not stated) showed an IC50 of over 1000 nM.
With `C=C(COc1ccc2c3c1O[C@H]1c4[nH]c5c(c4C[C@@]4(O)[C@@H](C2)N(CC2CC2)CC[C@]314)C[C@@]1(O)[C@H]2Cc3ccc(OCC(=C)C(=O)OC)c4c3[C@@]1(CCN2CC1CC1)[C@H]5O4)C(=O)OC` the IC50 was 50 nM.
